Laboratory results published in patent US9061077B2 (Emory University, priority 2008, dated 2015).

Assay: Percent dose in urine in healthy volunteers
Conditions: normal volunteers

technetium-99m tricarbonyl-nitrilotriacetic acid
Urine 30 min 99mTc/131I: 105%
